The results in this text go back to patent US12319659B2, “Selective ligand for dopamine D3 receptor, preparation method therefor, and pharmaceutical application thereof” (Shenzhen Linglan Bio-Pharmaceutical Technology Co., Ltd, priority 2017, dated 2025).

Sequences of proteins named here, by UniProt entry; tags and fusion partners are left off.
UniProt P35462, whole entry: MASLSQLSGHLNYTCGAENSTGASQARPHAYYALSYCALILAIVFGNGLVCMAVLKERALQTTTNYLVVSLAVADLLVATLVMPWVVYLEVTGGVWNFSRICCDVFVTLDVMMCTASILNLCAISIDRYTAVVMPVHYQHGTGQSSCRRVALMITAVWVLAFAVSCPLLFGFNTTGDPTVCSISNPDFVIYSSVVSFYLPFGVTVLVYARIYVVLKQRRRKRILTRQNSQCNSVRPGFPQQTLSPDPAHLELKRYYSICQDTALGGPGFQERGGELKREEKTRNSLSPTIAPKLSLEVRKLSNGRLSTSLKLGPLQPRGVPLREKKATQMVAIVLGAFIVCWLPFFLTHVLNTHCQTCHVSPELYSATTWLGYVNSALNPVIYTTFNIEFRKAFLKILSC

This assay addresses dopamine D3 receptor (Homo sapiens, UniProt P35462). The note with it: arylpiperazine-phthalimide compounds at 100 nM, [3H]-sulpiride, HEK-293 cells (Table 1).

Regarding `O=C1c2ccccc2C(=O)N1CCCCN1CCN(c2cccc(F)c2F)CC1` [Compound 3d, 2-(4-(4-(2,3-fluorophenyl)piperazin-1-yl)butyl)isoindoline-1,3-dione], the “D3 Receptor Displacement (%)” value is 65.4 ± 5.8%.
